We go through 8 molecules from PubChem BioAssay AID687 (PCMD, 2007).

The chains behind the UniProt entries cited, without tags or fusion partners.
UniProt P03951, whole entry, looked up: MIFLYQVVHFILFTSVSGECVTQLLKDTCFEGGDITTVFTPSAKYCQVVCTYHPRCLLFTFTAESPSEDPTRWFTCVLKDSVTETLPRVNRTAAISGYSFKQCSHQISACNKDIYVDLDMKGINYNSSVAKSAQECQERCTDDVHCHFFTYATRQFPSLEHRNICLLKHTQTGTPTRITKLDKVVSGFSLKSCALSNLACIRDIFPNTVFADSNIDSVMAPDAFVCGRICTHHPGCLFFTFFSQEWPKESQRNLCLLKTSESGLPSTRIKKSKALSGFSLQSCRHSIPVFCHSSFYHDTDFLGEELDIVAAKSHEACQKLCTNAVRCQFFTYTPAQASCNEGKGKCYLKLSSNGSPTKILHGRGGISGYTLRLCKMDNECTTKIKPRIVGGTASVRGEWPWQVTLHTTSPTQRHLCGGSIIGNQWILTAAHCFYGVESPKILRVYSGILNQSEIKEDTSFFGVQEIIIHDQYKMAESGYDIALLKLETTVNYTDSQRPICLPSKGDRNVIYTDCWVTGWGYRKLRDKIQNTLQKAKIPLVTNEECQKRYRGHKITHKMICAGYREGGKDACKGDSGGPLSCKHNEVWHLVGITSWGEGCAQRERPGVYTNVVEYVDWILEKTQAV

This is a selection; strong and weak results do not stand in their true shares. The source made the active and inactive calls.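 How the source made its calls: active means inhibition above 40% in the primary screen; inactive means the rest.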

This assay deals with Coagulation factor XI (Homo sapiens) (UniProt P03951). The experiment in a line: human FXIa protease inhibitors, primary screen, biochemical, single compound per well (AID 687).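 Further: 0% = enzyme without compound and 100% = blank wells lacking enzyme.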 The note with it: purified human FXIa, fluorogenic AMC substrate cleavage; at 10 µM; stronger effect = higher value.
With `Cc1cccc(OCC(=O)OC2CN3CCC2CC3)c1` (stereo not drawn), the inhibition (commonly the drop in the measured response relative to a control, in per cent) was inactive: -1.47%.
In the case of `CC1(CBr)Cn2c(nc3ccccc3c2=O)S1` (stereo not drawn) it was inactive: 2.05%; in that of `CCC(C)N(CC(C)C)C(=S)SC(NC(C)=O)C(Cl)(Cl)Cl` (stereo not drawn), inactive: 1.57%; in that of `Oc1ccccc1CNc1ccccn1`, inactive: 4.18%.
In the case of `CCOP(=O)(Nc1ccccc1)OCC` it was inactive: -4.56%; in that of `CC1CCN(C(=O)Oc2c(Cl)cc(Cl)c3cccnc23)CC1`, inactive: 4.51%.
The same measure for `O=[N+]([O-])c1cccc2n[nH]nc12`: inactive: 18.6%; for `COC(=O)c1cc2c(s1)N=C(c1ccccc1)N(C)P2(=O)N1CCOCC1` (stereo not drawn): inactive: -0.3%.
